Patent US5643873A, “Peptides and compounds that bind selectins including endothelial leukocyte adhesion molecule 1” (Affymax Technologies N.V., priority 1994, dated 1997)

Biological target: T1, E-selectin (Homo sapiens, UniProt P16581)
T1 sequence (P16581 22-554): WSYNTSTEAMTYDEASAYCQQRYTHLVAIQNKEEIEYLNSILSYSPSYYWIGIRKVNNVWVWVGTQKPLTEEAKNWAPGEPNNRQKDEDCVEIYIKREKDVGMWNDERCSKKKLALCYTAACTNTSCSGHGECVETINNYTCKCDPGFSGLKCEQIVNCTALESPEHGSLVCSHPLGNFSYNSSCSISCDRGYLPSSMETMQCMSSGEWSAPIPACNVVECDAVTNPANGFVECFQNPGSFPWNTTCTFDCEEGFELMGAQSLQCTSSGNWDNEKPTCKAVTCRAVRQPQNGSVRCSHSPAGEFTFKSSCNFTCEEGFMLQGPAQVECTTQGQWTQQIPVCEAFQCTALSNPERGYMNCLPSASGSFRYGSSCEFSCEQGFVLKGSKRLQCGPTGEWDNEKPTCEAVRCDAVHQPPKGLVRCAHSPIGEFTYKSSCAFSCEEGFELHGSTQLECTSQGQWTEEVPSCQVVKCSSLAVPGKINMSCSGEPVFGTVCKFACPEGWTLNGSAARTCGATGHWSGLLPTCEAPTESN
Test: HL60 cell adhesion assay (labeled HL60 cells adhering to immobilized E-selectin)
Assay type: cell-based
Design: truncated form comprising the complete extracellular domain (amino acids 1 through 554); made in house
Method: By comparing test wells with control wells (no receptor), one can determine whether a peptide binds to E-selectin specifically. Peptides found to bind specifically to E-selectin were then synthesized as the free peptide (no phage) and tested in an HL60 cell adhesion competition assay. The competition assay was carried out similarly to the ELISA, except that labeled HL60 cells were added in addition to the peptide [the control wells were typically of at least two types: (1) no immobilized E-selectin; and (2) no peptide; see Example 1]. In this regard, HL60 cells are known to contain surface glycoconjugates which bind to E-selectin.
Peptides that block the binding of labeled HL60 cells to E-selectin are then evaluated to determine their IC50 -HL60 in the manner also specified in Example 1. […]
After the test compound incubation period, 100 μL of labeled HL60 cells were added to each well, and the microtiter plate was incubated at 4° C. for 30 minutes. […] After this incubation, aliquots were removed from each well and placed in scintillation vials; scintillation fluid was added to each vial; and the radioactivity in each aliquot was quantitated by liquid scintillation counting. […]
The concentration of any peptide or peptide mimetic required to reduce by 50% the binding of HL60 cells to E-selectin as per the assay of Example 1 is determined by the following procedure. […]

monofucosyl monosialyllactose [SLe^x, reference compound]
blocking of cell adhesion (in words) (500 to 1000 μM, FIG. 2B): does block cell adhesion
blocking of HL60 binding / cell adhesion (in words) (about 200 μM, FIG. 1): did not exhibit significant blocking
